# Source: US20050281775A1, “Mucoadhesive and bioadhesive polymers” (priority 2004, published 2005)
# System: HT29-MTX-E12 (E12) monolayers
substance,measurement,value
poly(2-(dimethylamino-ethyl) methacrylate) [Polymer “D”],adhesion with mucosal gel layer (HT29-MTX-E12) relative to Caco-2,up to 5 times
same,"increase in uptake of polymer, HT29-MTX-E12 over Caco-2",5 fold
same,transepithelial transport of polymer,minimal
